Test results as given in ChEMBL document CHEMBL3886589, “Quinoline carboxamide and quinoline carbonitrile derivatives as mGluR2-negative allosteric modulators, compositions, and their use” (2016).

Chains of the proteins cited; added tags and fusions are not shown. Lines headed by an entry give the natural chain unless they say otherwise; changes in a name come on top.
UniProt Q14416: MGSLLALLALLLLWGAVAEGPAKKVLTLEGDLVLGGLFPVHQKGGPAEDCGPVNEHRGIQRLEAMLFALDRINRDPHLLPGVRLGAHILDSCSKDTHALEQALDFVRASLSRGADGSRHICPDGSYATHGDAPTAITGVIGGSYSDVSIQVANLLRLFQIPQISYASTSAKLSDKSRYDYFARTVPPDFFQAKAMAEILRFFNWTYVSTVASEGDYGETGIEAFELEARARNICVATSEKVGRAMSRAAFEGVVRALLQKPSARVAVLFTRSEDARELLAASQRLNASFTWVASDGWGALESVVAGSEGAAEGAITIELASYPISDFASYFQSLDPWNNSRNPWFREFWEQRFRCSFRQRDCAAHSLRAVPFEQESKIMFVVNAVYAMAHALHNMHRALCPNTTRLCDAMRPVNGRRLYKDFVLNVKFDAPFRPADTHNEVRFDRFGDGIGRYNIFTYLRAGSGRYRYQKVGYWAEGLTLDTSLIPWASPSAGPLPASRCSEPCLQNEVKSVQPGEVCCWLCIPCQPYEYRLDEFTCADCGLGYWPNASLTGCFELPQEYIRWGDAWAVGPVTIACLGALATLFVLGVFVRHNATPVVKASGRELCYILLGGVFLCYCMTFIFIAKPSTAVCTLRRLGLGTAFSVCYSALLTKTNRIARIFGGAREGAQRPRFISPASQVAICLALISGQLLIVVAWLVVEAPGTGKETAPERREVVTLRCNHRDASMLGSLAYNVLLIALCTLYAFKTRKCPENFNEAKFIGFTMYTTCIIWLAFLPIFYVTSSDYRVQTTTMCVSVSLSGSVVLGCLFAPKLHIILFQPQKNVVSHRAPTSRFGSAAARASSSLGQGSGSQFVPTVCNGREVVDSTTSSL

Target: Metabotropic glutamate receptor 2 (Homo sapiens, UniProt Q14416)
Test: Biological Assay: The utility of the compounds in accordance with the present invention as antagonists of metabotropic glutamate receptor activity, in particular mGluR2 activity, may be demonstrated by methodology known in the art. Antagonist constants are determined as follows. The compounds of the present invention were tested in a fluorescence laser imaging plate reader based assay. This assay …
Assay type: cell-based

Row | Structure (SMILES) | IC50 [nM]
1 | COC(=O)c1cc(-c2cnn(C)c2)c2ccc(CN3CCO[C@@H](C(F)(F)F)C3)c(F)c2n1 | 14
2 | COC(=O)c1cc(-c2cnn(C)c2)c2ccc(CN3CCO[C@H](C(F)(F)F)C3)c(F)c2n1 | 21
